Values quoted from earlier work, collected in article PMC3197876 (Journal of medicinal chemistry, 2011).

The chains behind the UniProt entries cited, without tags or fusion partners. Residues count along the entry.
UniProt P17787, 26-502: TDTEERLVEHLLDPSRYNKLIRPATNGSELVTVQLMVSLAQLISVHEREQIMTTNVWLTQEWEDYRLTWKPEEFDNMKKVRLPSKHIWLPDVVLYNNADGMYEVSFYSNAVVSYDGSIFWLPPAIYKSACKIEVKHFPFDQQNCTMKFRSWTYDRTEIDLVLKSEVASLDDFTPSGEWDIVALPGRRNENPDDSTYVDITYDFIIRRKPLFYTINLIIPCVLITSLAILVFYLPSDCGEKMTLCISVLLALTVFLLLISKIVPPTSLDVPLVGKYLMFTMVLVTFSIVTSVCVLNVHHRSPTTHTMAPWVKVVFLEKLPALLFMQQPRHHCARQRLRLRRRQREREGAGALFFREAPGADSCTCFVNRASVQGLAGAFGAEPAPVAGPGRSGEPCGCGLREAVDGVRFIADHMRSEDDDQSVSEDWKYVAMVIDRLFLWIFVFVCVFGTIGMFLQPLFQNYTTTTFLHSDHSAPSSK
UniProt P43681, 29-627 limits assumed: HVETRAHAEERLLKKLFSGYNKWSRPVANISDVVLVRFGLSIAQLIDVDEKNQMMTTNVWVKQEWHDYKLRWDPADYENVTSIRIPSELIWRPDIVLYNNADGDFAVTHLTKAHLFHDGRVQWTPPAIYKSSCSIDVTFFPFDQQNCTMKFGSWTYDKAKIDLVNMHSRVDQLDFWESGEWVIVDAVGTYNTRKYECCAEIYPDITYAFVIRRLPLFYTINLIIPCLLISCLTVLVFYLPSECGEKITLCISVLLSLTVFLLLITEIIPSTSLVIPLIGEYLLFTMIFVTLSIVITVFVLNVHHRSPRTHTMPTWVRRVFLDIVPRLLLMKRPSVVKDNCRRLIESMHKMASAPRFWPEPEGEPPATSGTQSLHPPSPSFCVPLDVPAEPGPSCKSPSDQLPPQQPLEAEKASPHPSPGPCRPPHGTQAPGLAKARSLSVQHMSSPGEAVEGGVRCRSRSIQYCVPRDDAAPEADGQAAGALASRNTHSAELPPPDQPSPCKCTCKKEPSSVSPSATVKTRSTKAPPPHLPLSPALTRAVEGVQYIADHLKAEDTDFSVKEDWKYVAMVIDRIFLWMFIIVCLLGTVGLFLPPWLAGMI

Biological target: human α4β2-nAChR (Homo sapiens, UniProt P17787+P43681)
Conditions: normalized to complete functional inhibition; ref [13]; cited from earlier work

Which “Inactivation Efficacy” value does the source give for `CN1CCC[C@H]1c1cccnc1` [Nicotine] here?
Its value is 93%.
